Activity calls are given as the source filed them. No cut-off for these calls is given here.

By UniProt entry, the sequences of proteins in these tests, tags left out.
UniProt P10276, whole entry: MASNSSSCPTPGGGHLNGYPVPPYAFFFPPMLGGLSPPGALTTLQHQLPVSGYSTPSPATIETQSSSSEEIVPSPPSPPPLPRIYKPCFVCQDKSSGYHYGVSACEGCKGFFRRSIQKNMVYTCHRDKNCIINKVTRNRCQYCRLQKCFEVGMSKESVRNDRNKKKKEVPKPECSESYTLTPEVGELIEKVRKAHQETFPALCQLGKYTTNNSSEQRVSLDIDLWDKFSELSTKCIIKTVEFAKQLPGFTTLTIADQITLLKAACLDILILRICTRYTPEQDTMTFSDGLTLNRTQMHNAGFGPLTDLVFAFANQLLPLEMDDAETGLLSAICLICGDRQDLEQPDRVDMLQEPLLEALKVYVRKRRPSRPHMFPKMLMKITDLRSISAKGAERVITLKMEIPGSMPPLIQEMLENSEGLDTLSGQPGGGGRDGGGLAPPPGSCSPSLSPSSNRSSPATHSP

Assay [1] has as its target Retinoic acid receptor alpha (Homo sapiens) (UniProt P10276). Description: Antagonist activity at human RARalpha expressed in human HeLa cells assessed as inhibition of ATRA-induced RARE transactivation after 24 hrs by chloramphenicol acetyltransferase reporter gene assay. In kind it is cell-based. In short, it runs like this: (§1)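 HeLa cells cotransfected with RAR constructs and a constant beta-galactosidase plasmid as internal control, given 10–7 M ATRA (submaximal) plus increasing concentrations of compound; CAT reporter expression measured after 24 h. RARα, RARβ and RARγ tested. Vehicle control was dilution medium without retinoid; ATRA served as positive control.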

The target is the same in assay [2]. Description: Antagonist activity at human RARalpha expressed in human HeLa cells assessed as inhibition of ATRA-induced RARE-chloramphenicol acetyltransferase reporter gene expression after 24 hrs by transactivation competition assay. The class given is cell-based. In short, it runs like this: as §1

In the case of `CC1(C)CC=C(c2cnc3ccccc3c2)c2cc(C(=O)Nc3ccc(C(=O)O)cc3)ccc21`, the result in assay [1] and in assay [2] was Active.

(Values after ChEMBL document CHEMBL2384973, “Pharmacological activity of retinoic acid receptor alpha-selective antagonists in vitro and in vivo” (ACS Med Chem Lett, 2013).)
